Laboratory results from patent US20110263650A1 (priority 2007, published 2011).

Tested on: KB-V1 multidrug-resistant subclone of KB-3-1 (DSMZ ACC 149)
Assay: Growth inhibition assay (MTT), KB-V1 with and without verapamil

## CC[C@H](C)[C@H](NC(=O)[C@H]1CCCCN1C)C(=O)N(COC(=O)CC(C)C)[C@H](C[C@@H](OC(C)=O)c1nc(C(=O)N[C@@H](Cc2ccccc2)C[C@H](C)C(=O)O)cs1)C(C)C [Analogue 1, Tubulysin D, reference compound]
Verapamil 5 μg/ml
  IC50 KB-V1 w/verapamil: 0.025 ng/mL (≈ 0.0302 nM)
Without verapamil
  IC50 KB-V1 w/o verapamil: 0.23 ng/mL (≈ 0.278 nM)

Converted amounts (≈) assume the structure as drawn.
